{"source": "patent US4755522A", "about": "“Derivatives of N-[3-(2,4,6-trimethoxybenzoyl)propyl]piperidine, and their use in therapeutics” (priority 1986, dated 1988)", "tested_on": "mice", "format": "in vivo", "note": "Read-outs that look alike come from different tables or passages of the source."}
{"smiles": "COc1cc(OC)c(C(=O)CCCN2CCCC(CO)C2)c(OC)c1.Cl", "note": "(stereo not shown) [CRL 41,391, N-[3-(2,4,6-trimethoxybenzoyl)propyl]-3-piperidinemethanol hydrochloride]", "values": [{"measurement": "Mortality/6 mice", "setting": "195 mg/kg I.P.", "result": 0}, {"measurement": "Mortality/6 mice", "setting": "232.5 mg/kg I.P.", "result": 3}, {"measurement": "convulsions", "setting": "232.5 mg/kg I.P. (footnote *)", "result": "convulsions"}, {"measurement": "Mortality/6 mice", "setting": "260 mg/kg I.P.", "result": 5}]}
